Patent publication US6346389B1, “Method for selectively modulating the interactions between survivin and tubulin” (Yale University, priority 1998, dated 2002)

Test system: NIH3T3 cells
Experiment: Apoptosis assay in transfected NIH3T3 cells treated with taxol
Format: cell-based, mouse
Conditions: transient transfection, taxol treatment
Protocol: Apoptosis assay. Subconfluent cultures of NIH3T3 fibroblasts in 6-well tissue culture plates were co-transfected with 1 μg of lacZ reporter plasmid and 4 μg of various cDNA constructs, including Survivin, bcl-2, XIAP and coil-less Survivin, or control empty vector pcDNA3 using LipofectAMINE, as described above. Forty-eight hours after transfection, cells were fixed in 2% paraformaldehyde for 1 h and stained for β-galactosidase expression with 0.5 mg/ml 5-bromo-4-chloro-3-indolyl β-D-galactoside (Amersham), 5 mM potassium ferrocyanide, 5 mM potassium ferricyanide and 2 mM MgCl2 in PBS. β-Galactosidase-expressing cells were scored morphologically on an inverted microscope. In another series of experiments, BaF3 cells stably transfected with wild type or mutated Survivin constructs were washed, seeded in 96-well plates at 5×10^5/ml and cell viability was determined microscopically by trypan blue exclusion at increasing time intervals following IL-3 withdrawal, as described previously (Ambrosini, 1997).

XIAP: transfected XIAP cDNA in pcDNA3
Protection from taxol-induced apoptosis compared with pcDNA3 vector control: increased viability
